Measured values reported in US6696425B2, “Method of treating dry eye disease with purinergic receptor agonists” (Inspire Pharmaceuticals, Inc., priority 1997, dated 2004).

Chains of the proteins cited; added tags and fusions are not shown. Lines headed by an entry give the natural chain unless they say otherwise; changes in a name come on top.
UniProt P47900: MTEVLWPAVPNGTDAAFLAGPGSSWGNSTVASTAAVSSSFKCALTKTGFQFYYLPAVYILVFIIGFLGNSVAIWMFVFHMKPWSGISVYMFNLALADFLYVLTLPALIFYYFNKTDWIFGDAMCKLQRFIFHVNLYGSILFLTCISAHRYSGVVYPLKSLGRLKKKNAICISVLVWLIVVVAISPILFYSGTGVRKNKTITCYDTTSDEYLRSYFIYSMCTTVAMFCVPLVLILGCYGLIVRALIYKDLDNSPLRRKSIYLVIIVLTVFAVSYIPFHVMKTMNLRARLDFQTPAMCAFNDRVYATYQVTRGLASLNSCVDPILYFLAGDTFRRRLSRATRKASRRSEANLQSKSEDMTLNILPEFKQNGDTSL

Target: human P2Y1 receptor (Homo sapiens, UniProt P47900)
Test: Intracellular Ca2+ mobilization (FLIPR) in 1321N1 cells expressing P2Y1
Type: cell-based
Conditions: 1321 astrocytoma cells, n=3
Experimental: Average Fluorescence Units (AFU) corresponding to peak height were captured on disk and exported for further analysis. Changes in fluorescence data corresponding to concentrations of intracellular Ca^2+ were normalized to the response of the cognate agonists (2MeSADP for P2Y1 receptor, ATP for P2Y2 receptor, UTP for P2Y4 receptor, UDP for P2Y6 receptor, and ATP for P2Y11 receptor).
Agonist potencies were calculated using a four-parameter logistic equation and the GraphPad software package (San Diego, Calif.). […] Three experiments using triplicate assays were conducted on separate days for each P2Y receptor subtype.

pD2 for intracellular calcium mobilization, P2Y1 receptor: 5.24
EC50 (read-out: EC50 for intracellular calcium mobilization, P2Y1 receptor): 5.67 µM
Substance: Diadenosine diphosphate [Ap2A]
